In experiment [1] the target is Delta-type opioid receptor (Rattus norvegicus) (UniProt P33533). Kind of experiment: Relative potency to that of [Leu5]- enkephalin.
For experiment [2], the target named is Mu-type opioid receptor (Rattus norvegicus) (UniProt P33535). Kind of experiment: Relative potency to that of [Leu5]- enkephalin.
The target in experiment [3] is Delta-type opioid receptor (Rattus norvegicus) (UniProt P33533). Kind of experiment: Tested for antagonistic activity against delta opioid receptor from mouse vas deferens, using DPDPE as agonist.
For experiment [4] the target is unchanged. Put plainly: Tested for antagonistic activity against delta opioid receptor from mouse vas deferens, using [Leu5]- enkephalin as agonist.
Experiment [5] has the same target. Put plainly: Tested for antagonistic activity against delta Opioid Receptor from mouse vas deferens, using [D-Ala2] Deltorphin 1 as agonist.
For experiment [6] the target is unchanged. Kind of experiment: Tested for antagonistic activity against delta opioid receptor from mouse vas deferens, using [D-Ala2] Deltorphin 1 as agonist.

Sequences of proteins named here, by UniProt entry; tags and fusion partners are left off.
UniProt P33533, whole entry, looked up: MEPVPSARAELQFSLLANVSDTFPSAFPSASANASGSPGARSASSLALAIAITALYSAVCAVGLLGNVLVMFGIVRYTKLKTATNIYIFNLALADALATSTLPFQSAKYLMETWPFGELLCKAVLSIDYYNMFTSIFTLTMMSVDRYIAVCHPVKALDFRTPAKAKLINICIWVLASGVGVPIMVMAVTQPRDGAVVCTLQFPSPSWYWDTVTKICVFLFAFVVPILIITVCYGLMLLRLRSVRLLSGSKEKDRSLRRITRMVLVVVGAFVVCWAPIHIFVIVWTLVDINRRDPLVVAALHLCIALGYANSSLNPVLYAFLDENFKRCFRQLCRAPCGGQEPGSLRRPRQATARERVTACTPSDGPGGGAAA
UniProt P33535, whole entry, looked up: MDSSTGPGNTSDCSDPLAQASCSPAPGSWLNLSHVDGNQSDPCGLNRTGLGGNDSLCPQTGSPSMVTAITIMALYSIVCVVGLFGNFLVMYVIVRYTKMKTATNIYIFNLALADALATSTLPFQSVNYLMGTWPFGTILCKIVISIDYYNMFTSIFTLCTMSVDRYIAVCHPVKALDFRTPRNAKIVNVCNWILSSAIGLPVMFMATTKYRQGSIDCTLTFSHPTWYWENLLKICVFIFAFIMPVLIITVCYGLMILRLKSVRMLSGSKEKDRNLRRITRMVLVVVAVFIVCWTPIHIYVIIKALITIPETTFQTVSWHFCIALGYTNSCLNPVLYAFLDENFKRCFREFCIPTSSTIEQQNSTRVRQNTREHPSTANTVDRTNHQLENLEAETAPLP

With `CC(C)C[C@H](NC(=O)[C@H](Cc1ccccc1)NC(=O)CNC(=O)CNC(=O)[C@@H](N)Cc1ccc(O)cc1)C(=O)O`, the Potency in experiment [1] and in experiment [2] was 1 each time.
For `Oc1ccc2c3c1O[C@H]1c4[nH]c5ccccc5c4C[C@@]4(O)[C@@H](C2)N(CC2CC2)CC[C@]314` [NALTRINDOLE], in experiment [1], the Potency worked out at 13.9.
As for `CC(C)[C@H](NC(=O)[C@H](CC(=O)O)NC(=O)[C@H](Cc1ccccc1)NC(=O)[C@@H](C)NC(=O)[C@@H](N)Cc1ccc(O)cc1)C(=O)N[C@H](C(=O)NCC(N)=O)C(C)C` [DELTORPHIN C], the Potency in experiment [1] amounted to 0.393; in experiment [2], 0.0024.
`N[C@@H](Cc1ccc(O)cc1)C(=O)N1Cc2ccccc2C[C@H]1C(=O)N[C@@H](Cc1ccccc1)C(=O)O`: the Ke came out at 16.1 nM in experiment [3], 11.7 nM in experiment [4], 8.23 nM in experiment [5] and 12.6 nM in experiment [6].

Source of the values: ChEMBL document CHEMBL1126861 (J Med Chem, 1993).
